# Permeability data for macrocyclic peptides

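The data file gives no further conditions (lipid, pH, time, direction or concentration), and values from different papers need not be comparable. The list need not hold all peptides of the study. Peptides that the database sets to -10, its floor, are left out.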

PAMPA measures passive passage through an artificial lipid membrane.
Values are log10 P with P in cm/s, so -5 is more permeable than -7.

{"smiles": "CC(=O)N1CCC[C@H]1C(=O)N(C)[C@H](CC(C)C)C(=O)N[C@@H]1C(=O)N[C@@H](CC(C)C)C(=O)N[C@H](CC(C)C)C(=O)N(C)[C@H](CC(C)C)C(=O)N[C@@H](C)C(=O)N[C@@H](CC(C)C)C(=O)N2CCC[C@H]2C(=O)O[C@@H]1C", "PAMPA (log10 cm/s)": "-6.83"}
{"smiles": "CC(=O)N1CCC[C@H]1C(=O)N(C)[C@@H](CC(C)C)C(=O)N[C@@H]1C(=O)N(C)[C@H](CC(C)C)C(=O)N(C)[C@@H](CC(C)C)C(=O)N(C)[C@H](CC(C)C)C(=O)N(C)[C@H](C)C(=O)N[C@H](CC(C)C)C(=O)N2CCC[C@H]2C(=O)O[C@@H]1C", "PAMPA (log10 cm/s)": "-5.20"}
{"smiles": "CC(=O)N1CCC[C@H]1C(=O)N(C)[C@H](CC(C)C)C(=O)N[C@@H]1C(=O)N(C)[C@@H](CC(C)C)C(=O)N[C@H](CC(C)C)C(=O)N(C)[C@@H](CC(C)C)C(=O)N(C)[C@@H](C)C(=O)N[C@@H](CC(C)C)C(=O)N2CCC[C@H]2C(=O)O[C@@H]1C", "PAMPA (log10 cm/s)": "-5.55"}
{"smiles": "CC(=O)N1CCC[C@@H]1C(=O)N(C)[C@H](CC(C)C)C(=O)N[C@@H]1C(=O)N[C@@H](CC(C)C)C(=O)N(C)[C@@H](CC(C)C)C(=O)N(C)[C@@H](CC(C)C)C(=O)N[C@@H](C)C(=O)N[C@H](CC(C)C)C(=O)N2CCC[C@H]2C(=O)O[C@@H]1C", "PAMPA (log10 cm/s)": "-6.47"}
{"smiles": "CC(=O)N1CCC[C@H]1C(=O)N(C)[C@H](CC(C)C)C(=O)N[C@@H]1C(=O)N(C)[C@H](CC(C)C)C(=O)N[C@@H](CC(C)C)C(=O)N(C)[C@@H](CC(C)C)C(=O)N(C)[C@H](C)C(=O)N[C@@H](CC(C)C)C(=O)N2CCC[C@H]2C(=O)O[C@@H]1C", "PAMPA (log10 cm/s)": "-5.11"}
{"smiles": "CC(=O)N1CCC[C@H]1C(=O)N(C)[C@H](CC(C)C)C(=O)N[C@@H]1C(=O)N(C)[C@@H](CC(C)C)C(=O)N[C@H](CC(C)C)C(=O)N(C)[C@@H](CC(C)C)C(=O)N(C)[C@@H](C)C(=O)N[C@@H](CC(C)C)C(=O)N2CCC[C@@H]2C(=O)O[C@@H]1C", "PAMPA (log10 cm/s)": "-5.55"}
{"smiles": "CC(=O)N1CCC[C@H]1C(=O)N(C)[C@@H](CC(C)C)C(=O)N[C@@H]1C(=O)N[C@H](CC(C)C)C(=O)N(C)[C@H](CC(C)C)C(=O)N(C)[C@H](CC(C)C)C(=O)N[C@@H](C)C(=O)N[C@@H](CC(C)C)C(=O)N2CCC[C@@H]2C(=O)O[C@@H]1C", "PAMPA (log10 cm/s)": "-5.67"}
{"smiles": "CC(=O)N1CCC[C@H]1C(=O)N(C)[C@@H](CC(C)C)C(=O)N[C@@H]1C(=O)N[C@H](CC(C)C)C(=O)N(C)[C@H](CC(C)C)C(=O)N[C@@H](CC(C)C)C(=O)N(C)[C@H](C)C(=O)N[C@H](CC(C)C)C(=O)N2CCC[C@H]2C(=O)O[C@@H]1C", "PAMPA (log10 cm/s)": "-5.21"}
{"smiles": "CC(=O)N1CCC[C@H]1C(=O)N(C)[C@@H](CC(C)C)C(=O)N[C@@H]1C(=O)N[C@@H](CC(C)C)C(=O)N(C)[C@H](CC(C)C)C(=O)N[C@H](CC(C)C)C(=O)N[C@@H](C)C(=O)N[C@@H](CC(C)C)C(=O)N2CCC[C@H]2C(=O)O[C@@H]1C", "PAMPA (log10 cm/s)": "-6.68"}
{"smiles": "CC(=O)N1CCC[C@H]1C(=O)N(C)[C@H](CC(C)C)C(=O)N[C@@H]1C(=O)N(C)[C@H](CC(C)C)C(=O)N[C@H](CC(C)C)C(=O)N[C@H](CC(C)C)C(=O)N[C@H](C)C(=O)N[C@H](CC(C)C)C(=O)N2CCC[C@H]2C(=O)O[C@@H]1C", "PAMPA (log10 cm/s)": "-6.20"}
{"smiles": "CC(=O)N1CCC[C@H]1C(=O)N(C)[C@@H](CC(C)C)C(=O)N[C@@H]1C(=O)N(C)[C@H](CC(C)C)C(=O)N(C)[C@@H](CC(C)C)C(=O)N(C)[C@@H](CC(C)C)C(=O)N(C)[C@H](C)C(=O)N[C@H](CC(C)C)C(=O)N2CCC[C@H]2C(=O)O[C@@H]1C", "PAMPA (log10 cm/s)": "-5.41"}
{"smiles": "CC(=O)N1CCC[C@H]1C(=O)N(C)[C@H](CC(C)C)C(=O)N[C@@H]1C(=O)N[C@@H](CC(C)C)C(=O)N[C@H](CC(C)C)C(=O)N[C@H](CC(C)C)C(=O)N[C@@H](C)C(=O)N[C@@H](CC(C)C)C(=O)N2CCC[C@@H]2C(=O)O[C@@H]1C", "PAMPA (log10 cm/s)": "-6.50"}
{"smiles": "CC(=O)N1CCC[C@@H]1C(=O)N(C)[C@@H](CC(C)C)C(=O)N[C@@H]1C(=O)N[C@@H](CC(C)C)C(=O)N[C@H](CC(C)C)C(=O)N[C@H](CC(C)C)C(=O)N[C@@H](C)C(=O)N[C@@H](CC(C)C)C(=O)N2CCC[C@@H]2C(=O)O[C@@H]1C", "PAMPA (log10 cm/s)": "-7.01"}
{"smiles": "CC(=O)N1CCC[C@H]1C(=O)N(C)[C@@H](CC(C)C)C(=O)N[C@@H]1C(=O)N(C)[C@H](CC(C)C)C(=O)N[C@H](CC(C)C)C(=O)N(C)[C@@H](CC(C)C)C(=O)N(C)[C@@H](C)C(=O)N[C@H](CC(C)C)C(=O)N2CCC[C@H]2C(=O)O[C@@H]1C", "PAMPA (log10 cm/s)": "-5.49"}
{"smiles": "CC(=O)N1CCC[C@H]1C(=O)N[C@@H]1C(=O)N[C@H](CC(C)C)C(=O)N[C@@H](CC(C)C)C(=O)N(C)[C@H](CC(C)C)C(=O)N(C)[C@@H](CC(C)C)C(=O)N(C)[C@@H](C)C(=O)N[C@@H](CC(C)C)C(=O)N2CCC[C@@H]2C(=O)O[C@@H]1C", "PAMPA (log10 cm/s)": "-5.11"}
{"smiles": "CC(=O)N1CCC[C@@H]1C(=O)N(C)[C@@H](CC(C)C)C(=O)N[C@@H]1C(=O)N[C@@H](CC(C)C)C(=O)N[C@H](CC(C)C)C(=O)N(C)[C@H](CC(C)C)C(=O)N(C)[C@H](C)C(=O)N[C@@H](CC(C)C)C(=O)N2CCC[C@@H]2C(=O)O[C@@H]1C", "PAMPA (log10 cm/s)": "-6.69"}
{"smiles": "CC(=O)N1CCC[C@@H]1C(=O)N(C)[C@H](CC(C)C)C(=O)N[C@@H]1C(=O)N[C@H](CC(C)C)C(=O)N[C@@H](CC(C)C)C(=O)N[C@H](CC(C)C)C(=O)N[C@@H](C)C(=O)N[C@H](CC(C)C)C(=O)N2CCC[C@@H]2C(=O)O[C@@H]1C", "PAMPA (log10 cm/s)": "-7.60"}
{"smiles": "CC(=O)N1CCC[C@H]1C(=O)N(C)[C@@H](CC(C)C)C(=O)N[C@@H]1C(=O)N[C@@H](CC(C)C)C(=O)N(C)[C@@H](CC(C)C)C(=O)N[C@@H](CC(C)C)C(=O)N(C)[C@@H](C)C(=O)N[C@H](CC(C)C)C(=O)N2CCC[C@H]2C(=O)O[C@@H]1C", "PAMPA (log10 cm/s)": "-6.00"}
{"smiles": "CC(=O)N1CCC[C@H]1C(=O)N[C@@H]1C(=O)N[C@H](CC(C)C)C(=O)N(C)[C@H](CC(C)C)C(=O)N(C)[C@@H](CC(C)C)C(=O)N[C@@H](CC(C)C)C(=O)N(C)[C@H](C)C(=O)N[C@@H](CC(C)C)C(=O)N2CCC[C@@H]2C(=O)O[C@@H]1C", "PAMPA (log10 cm/s)": "-5.60"}

Excerpt, the opening 3 entries:

| structure (SMILES) | PAMPA (log10 cm/s) |
|---|---|
| CC(=O)N1CCC[C@H]1C(=O)N(C)[C@H](CC(C)C)C(=O)N[C@@H]1C(=O)N[C@@H](CC(C)C)C(=O)N[C@H](CC(C)C)C(=O)N(C)[C@H](CC(C)C)C(=O)N[C@@H](C)C(=O)N[C@@H](CC(C)C)C(=O)N2CCC[C@H]2C(=O)O[C@@H]1C | -6.83 |
| CC(=O)N1CCC[C@H]1C(=O)N(C)[C@@H](CC(C)C)C(=O)N[C@@H]1C(=O)N(C)[C@H](CC(C)C)C(=O)N(C)[C@@H](CC(C)C)C(=O)N(C)[C@H](CC(C)C)C(=O)N(C)[C@H](C)C(=O)N[C@H](CC(C)C)C(=O)N2CCC[C@H]2C(=O)O[C@@H]1C | -5.20 |
| CC(=O)N1CCC[C@H]1C(=O)N(C)[C@H](CC(C)C)C(=O)N[C@@H]1C(=O)N(C)[C@@H](CC(C)C)C(=O)N[C@H](CC(C)C)C(=O)N(C)[C@@H](CC(C)C)C(=O)N(C)[C@@H](C)C(=O)N[C@@H](CC(C)C)C(=O)N2CCC[C@H]2C(=O)O[C@@H]1C | -5.55 |

Values of Kelly et al. 2021, doi:10.1021/jacs.0c06115, as listed in CycPeptMPDB.